The conditions of data set [1]: 6 h, with 5 h iv 60 mM L-carnitine.
A short description of data set [2]: Example II: plasma total carnitine during L-carnitine infusion with insulin clamp. Particulars: 60 mM L-carnitine infusion. Type of data set: in vivo, men.
For data set [3] the following is noted: 6 h insulin infusion with 5 h iv 60 mM L-carnitine infusion.

Where two headings read alike, the source gives them in different places.

For the substance insulin, the “muscle total carnitine concentration” value in data set [1] (highest insulin infusion rate (105 mU·m^−2·min^−1), p<0.05) is “significant increase”. For the same substance, the muscle carnitine accumulation result in data set [1] (lowest insulin infusion rate (5 mU·m^−2·min^−1)) was “no effect”. The “plasma TC concentration, 105 vs 5 mU·m^−2·min^−1 insulin infusion” value in data set [2] (t=240 (p<0.05), t=300 (p<0.05), t=360 (p<0.01)) is on record as “significantly lower”. Besides, the “plasma TC concentration, 105 vs 30 mU·m^−2·min^−1 insulin infusion” value in data set [2] (t=360 (p<0.05)) was “significantly lower”. The “steady-state serum insulin concentration” value came to 10.3±0.3 mU/1 (intravenous insulin infusion 5 mU·m^−2·min^−1, after 60 min equilibration); 47.8±1.3 mU/1 (intravenous insulin infusion 30 mU·m^−2·min^−1, after 60 min equilibration); 85.6±2 mU/1 (intravenous insulin infusion 55 mU·m^−2·min^−1, after 60 min equilibration); 198.6±4.8 mU/1 (intravenous insulin infusion 105 mU·m^−2·min^−1, after 60 min equilibration). In addition, the “plasma carnitine concentration, 105 vs 5 mU·m^−2·min^−1 insulin clamp” value in data set [3] is recorded as “significantly lower”.
